Measured values from PMC2998342 (Peptides, 2009).

Protein sequences, listed by entry. Tags and fused reporters are not part of them. Lines headed by an entry give the natural chain unless they say otherwise; changes in a name come on top.
UniProt Q62976: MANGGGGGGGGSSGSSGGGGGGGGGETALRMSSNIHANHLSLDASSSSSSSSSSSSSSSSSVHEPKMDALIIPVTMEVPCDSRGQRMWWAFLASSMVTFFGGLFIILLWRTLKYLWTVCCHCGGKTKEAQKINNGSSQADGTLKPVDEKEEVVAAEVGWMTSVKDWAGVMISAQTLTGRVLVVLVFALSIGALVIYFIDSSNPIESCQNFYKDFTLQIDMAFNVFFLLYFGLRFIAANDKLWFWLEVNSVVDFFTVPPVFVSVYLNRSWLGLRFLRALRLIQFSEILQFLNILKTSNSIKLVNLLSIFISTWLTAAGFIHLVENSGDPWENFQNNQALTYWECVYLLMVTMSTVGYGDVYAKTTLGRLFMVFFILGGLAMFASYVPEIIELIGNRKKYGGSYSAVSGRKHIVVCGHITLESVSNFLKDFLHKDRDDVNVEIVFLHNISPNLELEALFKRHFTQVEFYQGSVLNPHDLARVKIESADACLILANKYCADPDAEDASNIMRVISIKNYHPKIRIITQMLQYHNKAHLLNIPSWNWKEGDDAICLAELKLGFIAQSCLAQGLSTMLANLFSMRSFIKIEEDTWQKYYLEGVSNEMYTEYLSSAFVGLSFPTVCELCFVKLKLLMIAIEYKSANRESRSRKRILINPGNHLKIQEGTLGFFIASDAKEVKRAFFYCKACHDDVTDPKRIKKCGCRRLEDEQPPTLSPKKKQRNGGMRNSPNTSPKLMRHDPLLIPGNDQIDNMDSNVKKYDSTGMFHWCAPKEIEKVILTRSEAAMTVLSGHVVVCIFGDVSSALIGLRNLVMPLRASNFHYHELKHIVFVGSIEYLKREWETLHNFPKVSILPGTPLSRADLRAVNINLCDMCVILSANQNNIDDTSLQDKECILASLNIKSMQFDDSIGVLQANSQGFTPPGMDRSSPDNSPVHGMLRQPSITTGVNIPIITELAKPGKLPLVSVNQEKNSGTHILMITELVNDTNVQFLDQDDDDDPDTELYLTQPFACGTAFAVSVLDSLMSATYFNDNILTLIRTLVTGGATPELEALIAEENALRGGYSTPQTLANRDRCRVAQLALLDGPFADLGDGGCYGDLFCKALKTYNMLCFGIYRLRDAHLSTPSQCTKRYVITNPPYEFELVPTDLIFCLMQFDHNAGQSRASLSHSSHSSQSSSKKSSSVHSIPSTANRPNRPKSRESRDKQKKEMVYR
UniProt Q12791: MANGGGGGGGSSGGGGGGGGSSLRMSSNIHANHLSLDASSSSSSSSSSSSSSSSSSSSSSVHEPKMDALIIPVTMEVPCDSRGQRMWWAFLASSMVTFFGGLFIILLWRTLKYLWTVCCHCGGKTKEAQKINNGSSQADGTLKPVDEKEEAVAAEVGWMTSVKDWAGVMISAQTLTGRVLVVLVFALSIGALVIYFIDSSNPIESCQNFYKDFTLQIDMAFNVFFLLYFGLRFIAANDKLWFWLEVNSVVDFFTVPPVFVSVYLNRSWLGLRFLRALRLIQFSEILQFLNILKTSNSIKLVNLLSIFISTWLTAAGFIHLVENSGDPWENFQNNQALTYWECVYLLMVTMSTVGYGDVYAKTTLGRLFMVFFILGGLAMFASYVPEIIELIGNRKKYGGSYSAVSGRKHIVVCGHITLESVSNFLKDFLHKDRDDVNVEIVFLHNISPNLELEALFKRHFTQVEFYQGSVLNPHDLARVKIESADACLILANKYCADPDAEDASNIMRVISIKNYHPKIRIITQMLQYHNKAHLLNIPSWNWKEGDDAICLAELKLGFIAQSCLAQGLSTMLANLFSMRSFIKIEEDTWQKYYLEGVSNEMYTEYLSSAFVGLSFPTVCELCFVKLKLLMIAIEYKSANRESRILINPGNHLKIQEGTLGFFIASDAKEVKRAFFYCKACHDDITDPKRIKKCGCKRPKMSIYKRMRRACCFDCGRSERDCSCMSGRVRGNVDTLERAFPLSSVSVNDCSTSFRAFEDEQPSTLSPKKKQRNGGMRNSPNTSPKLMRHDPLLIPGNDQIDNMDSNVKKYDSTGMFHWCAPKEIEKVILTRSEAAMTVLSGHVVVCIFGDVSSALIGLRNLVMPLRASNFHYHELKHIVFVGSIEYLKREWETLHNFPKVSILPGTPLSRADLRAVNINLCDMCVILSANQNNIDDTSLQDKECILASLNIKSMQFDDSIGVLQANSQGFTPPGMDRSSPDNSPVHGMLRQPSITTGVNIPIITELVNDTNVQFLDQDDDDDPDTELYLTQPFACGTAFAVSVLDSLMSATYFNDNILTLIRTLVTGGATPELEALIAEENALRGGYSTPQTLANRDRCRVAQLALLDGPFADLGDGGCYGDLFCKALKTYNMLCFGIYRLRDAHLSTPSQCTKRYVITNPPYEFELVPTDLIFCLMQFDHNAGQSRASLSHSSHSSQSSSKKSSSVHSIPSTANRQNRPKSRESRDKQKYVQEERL

Experiments:
[1] = target: KCa1.1 channels from rat skeletal muscle (Rattus norvegicus, UniProt Q62976); test: Single-channel recording of KCa1.1 channels in planar lipid bilayers; format: biochemical
In short: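 Single-channel recording of rat skeletal muscle KCa1.1 in planar lipid bilayers. Both sides held 200 mM KCl, 10 mM Mops-KOH, pH 7.4. The intracellular side added 0.2 mM CaCl2; the extracellular side added 0.1 mM EDTA and 0.1 mg mL−1 BSA. Sides were assigned by the channel's native asymmetry.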

[2] = target: human KCa1.1 channel (HSlo) (Homo sapiens, UniProt Q12791); test: Whole-cell patch clamp inhibition of cloned human KCa1.1; format: cell-based
In short: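 Whole-cell clamp of HEK293 stably expressing N-terminal Flag-tagged human HSlo. Pipette: KCl/EGTA/Hepes-KOH pH 7.2, 0.5 μM free Ca2+. Bath: NaCl-based pH 7.4. Steps from −80 mV to +100 mV (+10 mV, 100 ms), 5 kHz filter, P/5 leak correction, paxilline-resistant current subtracted. Toxin (50 nM) gravity-perfused; −80→+50 mV pulses every 10 s tracked onset/washout. KI from one-site fit; Kd from kinetic ratio.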

SMILES: CSCC[C@@H]1NC(=O)[C@@H]2CSSC[C@H](NC(=O)[C@H](CC(=O)O)NC(=O)[C@@H](NC(=O)[C@H](CC(=O)O)NC(=O)[C@@H](NC(=O)[C@H](Cc3ccccc3)NC(=O)[C@@H]3CCC(=O)N3)[C@@H](C)O)C(C)C)C(=O)N[C@@H](CO)C(=O)N[C@@H](C(C)C)C(=O)N[C@@H](CO)C(=O)N[C@@H](CCCCN)C(=O)N[C@@H](CCC(=O)O)C(=O)N[C@H]3CSSC[C@H](NC(=O)[C@H](CCCCN)NC(=O)[C@H](CCCCN)NC(=O)CNC1=O)C(=O)N[C@@H](CCCNC(=N)N)C(=O)N[C@H](C(=O)N[C@@H](Cc1ccc(O)cc1)C(=O)N[C@@H](CCC(N)=O)C(=O)O)CSSC[C@H](NC(=O)[C@H](C(C)C)NC(=O)[C@H](CO)NC(=O)[C@H](Cc1c[nH]c4ccccc14)NC3=O)C(=O)N[C@@H](CCCCN)C(=O)N[C@@H](CSCNC(C)=O)C(=O)N[C@@H](CC(C)C)C(=O)N[C@@H](Cc1ccccc1)C(=O)NCC(=O)N[C@@H](C(C)C)C(=O)N[C@@H](CC(=O)O)C(=O)N[C@@H](CCCNC(=N)N)C(=O)NCC(=O)N[C@@H](CCCCN)C(=O)N2 [IbTx-D19C-Acm]
- channel block behaviour of single BKCa channels ([1]; single channel, lipid bilayer, data not shown): characteristic discrete long-lived blocked states
- potency and selectivity towards KCa 1.1 ([1]; summary statement, Table 1, this work and ref [2]): retain potency and selectivity towards KCa 1.1

SMILES: COc1ccc(CSC[C@@H]2NC(=O)[C@H](CCCCN)NC(=O)[C@@H]3CSSC[C@@H](C(=O)N[C@@H](Cc4ccc(O)cc4)C(=O)N[C@@H](CCC(N)=O)C(=O)O)NC(=O)[C@H](CCCNC(=N)N)NC(=O)[C@@H]4CSSC[C@H](NC(=O)[C@H](CCC(=O)O)NC(=O)[C@H](CCCCN)NC(=O)[C@H](CO)NC(=O)[C@H](C(C)C)NC(=O)[C@H](CO)NC(=O)[C@@H](NC(=O)[C@H](CC(=O)O)NC(=O)[C@@H](NC(=O)[C@H](CC(=O)O)NC(=O)[C@@H](NC(=O)[C@H](Cc5ccccc5)NC(=O)[C@@H]5CCC(=O)N5)[C@@H](C)O)C(C)C)CSSC[C@H](NC(=O)[C@H](CCCCN)NC(=O)CNC(=O)[C@H](CCCNC(=N)N)NC(=O)[C@H](CC(=O)O)NC(=O)[C@H](C(C)C)NC(=O)CNC(=O)[C@H](Cc5ccccc5)NC(=O)[C@H](CC(C)C)NC2=O)C(=O)N[C@@H](CCSC)C(=O)NCC(=O)N[C@@H](CCCCN)C(=O)N[C@@H](CCCCN)C(=O)N4)C(=O)N[C@@H](Cc2c[nH]c4ccccc24)C(=O)N[C@@H](CO)C(=O)N[C@@H](C)C(=O)N3)cc1 [Lig-IbTx-MeOBzl, native chemical ligated iberiotoxin-V16A/D19C-4-MeOBzl]
- Kd [2]: 1.9 nM
- inhibition at 0.05 µM ([2]; read-out: inhibition of HSlo current): ≥ 80%
- affinity / dissociation rate in words ([2]; whole-cell patch clamp, human KCa1.1, listed as iberiotoxin V16A/D19-Cys-4-MeOBzl): ‘native-like’ affinity
